From publication PMC12164071, “Lysine targeting covalent inhibitors of malarial kinase PfCLK3” (RSC Medicinal Chemistry, 2025) come the findings set out here.

By UniProt entry, the sequences of proteins in these tests, tags left out.
UniProt P49760, whole entry: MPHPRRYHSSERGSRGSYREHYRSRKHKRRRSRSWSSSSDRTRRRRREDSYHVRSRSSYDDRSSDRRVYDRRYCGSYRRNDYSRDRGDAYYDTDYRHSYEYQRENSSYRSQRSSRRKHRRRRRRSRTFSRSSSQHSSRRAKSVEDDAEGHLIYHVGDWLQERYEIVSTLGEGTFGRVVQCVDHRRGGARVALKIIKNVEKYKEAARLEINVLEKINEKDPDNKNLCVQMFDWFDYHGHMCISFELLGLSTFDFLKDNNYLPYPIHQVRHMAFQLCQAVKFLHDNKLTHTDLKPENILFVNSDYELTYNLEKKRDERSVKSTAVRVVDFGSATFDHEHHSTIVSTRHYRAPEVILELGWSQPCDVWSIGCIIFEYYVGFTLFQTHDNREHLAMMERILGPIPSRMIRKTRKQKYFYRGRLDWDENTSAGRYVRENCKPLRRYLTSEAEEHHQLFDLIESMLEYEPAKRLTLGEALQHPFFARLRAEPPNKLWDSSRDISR

The experiment has as its target human (h)CLK2 (Homo sapiens, UniProt P49760). In words: Selectivity kinase assay against hCLK2. The conditions noted are these: errors SD, N ≥ 3.

As usually defined, the IC50 is the concentration that inhibits the measured activity by half. `CCN(CC)Cc1ccc(OC)c(-c2cnc3[nH]cc(-c4ccc(C(=O)O)c(C(C)C)c4)c3c2)c1`: the “pIC50 (hCLK2)” value came to 6.46 ± 0.15. For the same compound, the half-inhibitory concentration (IC50) (read-out: IC50 (hCLK2)) is 344 nM.
